Laboratory results: patent US6444477B1, “Assay method for detecting 5-HT2B antagonists” (Pharmagene Laboratories Limited, priority 2000, dated 2002)

Amino acid sequences for entries named in this document (tags omitted).
UniProt P41595, whole entry: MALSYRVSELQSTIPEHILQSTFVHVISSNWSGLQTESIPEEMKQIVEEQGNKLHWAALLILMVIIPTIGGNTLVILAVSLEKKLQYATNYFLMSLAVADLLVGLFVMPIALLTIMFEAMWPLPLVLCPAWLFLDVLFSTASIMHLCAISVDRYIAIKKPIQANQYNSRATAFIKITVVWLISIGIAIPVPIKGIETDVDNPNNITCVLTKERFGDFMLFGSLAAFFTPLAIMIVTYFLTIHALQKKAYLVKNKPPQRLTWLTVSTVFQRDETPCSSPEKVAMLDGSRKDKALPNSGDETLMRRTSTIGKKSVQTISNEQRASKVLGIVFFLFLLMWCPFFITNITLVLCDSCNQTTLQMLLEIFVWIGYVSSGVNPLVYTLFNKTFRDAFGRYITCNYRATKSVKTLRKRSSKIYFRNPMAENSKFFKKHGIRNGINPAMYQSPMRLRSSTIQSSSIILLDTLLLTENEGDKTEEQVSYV
UniProt Q13639, whole entry: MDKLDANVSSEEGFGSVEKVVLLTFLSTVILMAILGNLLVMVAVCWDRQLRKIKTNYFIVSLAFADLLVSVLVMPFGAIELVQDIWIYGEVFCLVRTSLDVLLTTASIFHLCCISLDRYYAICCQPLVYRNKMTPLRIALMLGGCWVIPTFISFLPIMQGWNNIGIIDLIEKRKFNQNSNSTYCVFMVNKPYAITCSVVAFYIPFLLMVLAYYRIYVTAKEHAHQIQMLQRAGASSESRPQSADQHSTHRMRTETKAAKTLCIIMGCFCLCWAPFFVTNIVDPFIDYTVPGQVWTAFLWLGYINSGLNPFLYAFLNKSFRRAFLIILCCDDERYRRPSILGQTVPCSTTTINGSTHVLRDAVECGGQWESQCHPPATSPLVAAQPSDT

Assays:
[1] = biological target: 5-HT receptor in human colon longitudinal muscle (Homo sapiens, UniProt P41595); test: 5-HT-induced potentiation of electrically stimulated contractions of human colon longitudinal muscle strips; type: cell-based
5-HT2B receptor = 5-HT2B receptor (Homo sapiens, UniProt P41595); conditions: cited from earlier work
human 5-HT4 receptor = human 5-HT4 receptor (Homo sapiens, UniProt Q13639); conditions: cited from earlier work

Cc1[nH]c2ccc(O)cc2c1CCN
pEC50 for agonists at the 5-HT receptor in colon [1]: 7.0 ± 0.4 | pEC50 for agonists at human 5-HT2B receptor (5-HT2B receptor): 6.7 | pEC50 for agonists at human 5-HT4 receptor (human 5-HT4 receptor): 6.0
